assay: Solubility in water; settings: compound of the example (salt form) in water

**Q.** With “2-(4-diethylaminobutyl)-malonate•cis-ammonia•cyclopentylamine platinum (II) acetate [Compound 26]” as the substance, how does the solubility read?
**A.** more than 300 mg/ml

**Q.** With “2-(4-diethylaminobutyl)-malonate•cis-(1, 2-trans-cyclopropanediamine) platinum (II) phosphate [Compound 16]” as the substance, how does the solubility read?
**A.** more than 300 mg/ml

**Q.** For “2-(4-ethyl aminobutyl)-malonate•cis-(1, 2-trans-cyclohexanediamine) platinum (II) phosphate [Compound 12]”, which solubility is on record?
**A.** more than 300 mg/ml

**Q.** With “2-(2-diethylaminobutyl)-malonate•cis-1,2-(1,2-dihydroxymethyl)-ethylenediamine platinum (II) phosphate [Compound 20]” as the substance, how does the solubility read?
**A.** more than 300 mg/ml

**Q.** For “2-(4-diethylaminobutyl)-malonate•cis-(2-aminomethyl-cyclopentylamine) platinum (II) acetate [Compound 27]”, which solubility is on record?
**A.** more than 300 mg/ml

**Q.** With “2-(4-diethylaminobutyl)-malonate•cis-dicyclopentylamine platinum (II) acetate [Compound 25]” as the substance, how does the solubility read?
**A.** more than 300 mg/ml

**Q.** For “2-(4-di-n-propylaminobutyl)-malonate•cis-diamine platinum (II) phosphate [Compound 7]”, which solubility is on record?
**A.** more than 300 mg/ml
